Values quoted from earlier work, collected in patent publication US20020115727A1, “Synthesis, methods of using, and compositions of hydroxylated cyclobutylalkylamines” (priority 2000, published 2002).

Amino acid sequences for entries named in this document (tags omitted).
UniProt P23977, whole entry: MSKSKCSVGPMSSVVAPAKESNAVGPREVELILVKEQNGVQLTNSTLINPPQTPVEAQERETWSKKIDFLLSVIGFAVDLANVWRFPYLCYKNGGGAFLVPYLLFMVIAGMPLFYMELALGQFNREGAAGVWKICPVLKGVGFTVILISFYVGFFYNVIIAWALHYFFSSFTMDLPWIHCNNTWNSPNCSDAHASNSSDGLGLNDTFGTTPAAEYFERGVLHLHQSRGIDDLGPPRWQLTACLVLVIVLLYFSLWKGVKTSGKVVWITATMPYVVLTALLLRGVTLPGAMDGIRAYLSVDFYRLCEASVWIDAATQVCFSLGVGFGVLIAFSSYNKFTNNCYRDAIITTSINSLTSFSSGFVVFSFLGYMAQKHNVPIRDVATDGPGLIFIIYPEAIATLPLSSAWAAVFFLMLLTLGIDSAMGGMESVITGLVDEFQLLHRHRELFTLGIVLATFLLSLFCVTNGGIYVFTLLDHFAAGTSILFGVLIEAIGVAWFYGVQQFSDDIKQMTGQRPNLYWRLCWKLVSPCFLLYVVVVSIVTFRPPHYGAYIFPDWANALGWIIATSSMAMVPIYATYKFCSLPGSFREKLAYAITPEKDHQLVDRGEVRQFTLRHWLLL
UniProt P31652, whole entry: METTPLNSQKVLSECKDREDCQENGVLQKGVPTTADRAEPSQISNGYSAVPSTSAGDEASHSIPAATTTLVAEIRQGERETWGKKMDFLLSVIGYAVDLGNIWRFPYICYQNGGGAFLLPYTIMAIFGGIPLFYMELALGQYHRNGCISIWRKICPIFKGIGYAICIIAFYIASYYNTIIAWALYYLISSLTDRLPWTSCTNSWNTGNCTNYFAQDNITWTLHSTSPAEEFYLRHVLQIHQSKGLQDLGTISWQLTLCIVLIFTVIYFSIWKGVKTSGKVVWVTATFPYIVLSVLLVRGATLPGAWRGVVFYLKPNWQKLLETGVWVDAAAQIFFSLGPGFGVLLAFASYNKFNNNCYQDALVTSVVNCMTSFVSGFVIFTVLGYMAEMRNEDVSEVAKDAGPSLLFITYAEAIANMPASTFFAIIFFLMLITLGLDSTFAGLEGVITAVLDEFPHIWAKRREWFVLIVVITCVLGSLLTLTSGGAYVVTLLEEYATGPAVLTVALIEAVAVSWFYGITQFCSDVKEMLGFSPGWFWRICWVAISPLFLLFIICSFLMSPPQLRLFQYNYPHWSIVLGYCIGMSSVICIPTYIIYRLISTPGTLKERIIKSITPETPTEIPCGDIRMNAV

Legend:
[1] = target: T1, functional uptake of dopamine (DA) into synaptosomes prepared from rat corpora striata (Rattus norvegicus, UniProt P23977); settings: read-out: IC50 for inhibition of uptake of DA; reported values, basis of comparison; cited from earlier work
T1 construct: into synaptosomes prepared from rat whole brain, hypothalamus, or corpora striata, respectively; from tissue; host or cells: rat corpora striata synaptosomes

[2] = target: T2, functional uptake of serotonin (5-HT) into synaptosomes prepared from rat whole brain (Rattus norvegicus, UniProt P31652); settings: read-out: IC50 for inhibition of uptake of 5-HT; reported values, basis of comparison; cited from earlier work
T2 construct: into synaptosomes prepared from rat whole brain, hypothalamus, or corpora striata, respectively; from tissue; host or cells: rat whole brain synaptosomes

Compound | IC50 [1] [nM] | IC50 [2] [nM]
CC(C)C[C@H](N)C1(c2ccc(Cl)cc2)CCC1 [(S)-DDMS] | 12 | –
CN[C@@H](CC(C)C)C1(c2ccc(Cl)cc2)CCC1 [(S)-DMS] | 180 | –
CC(C)C[C@@H](N)C1(c2ccc(Cl)cc2)CCC1 [(R)-DDMS] | 8.9 | –
CN[C@H](CC(C)C)C1(c2ccc(Cl)cc2)CCC1 [(R)-DMS] | 12 | 44
